# Assay: Solubility of analytes and polymer in solvents, dissolution media and water
# Format: physicochemical
smiles,measurement,setting,value
"CC1(C)C(/C=C/C=C/C=C/C=C2\N(CCCCS(=O)(=O)O)c3ccc4ccccc4c3C2(C)C)=[N+](CCCCS(=O)(=O)[O-])c2ccc3ccccc3c21 [ICG, Indocyanine green]",solubility,"DMF, organic solvent or mixture",46200 µg/mL
same,solubility,"DMSO, organic solvent or mixture",62200 µg/mL
same,solubility,"THF, organic solvent or mixture",< 500 µg/mL
same,solubility,"acetonitrile, organic solvent or mixture",30 µg/mL
same,solubility,dissolution media,> 5000 µg/mL
same,solubility,water,> 5000 µg/mL

# — patent US20140107062A1, “COMPOSITIONS AND METHODS FOR TREATING OR PREVENTING DISEASES OF BODY PASSAGEWAYS” (Aravasc Inc., priority 2007, published 2014)
